Experimental data from patent US10053431B2, “Tetrahydro-benzodiazepinones” (priority 2013, dated 2018).

Sequences of proteins named here, by UniProt entry; tags and fusion partners are left off. A line that says so, or that is headed by a name, gives the form on record, which may keep a tag or linker. Residues count along the entry.
UniProt P98170, 124-240 with tags or gaps C202A/C213G limits assumed: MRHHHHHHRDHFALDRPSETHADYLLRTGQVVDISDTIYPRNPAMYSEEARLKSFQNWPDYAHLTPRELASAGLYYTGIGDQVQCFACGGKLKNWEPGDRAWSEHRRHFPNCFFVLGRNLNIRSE
UniProt P98170, 241-356 with tags or gaps limits assumed: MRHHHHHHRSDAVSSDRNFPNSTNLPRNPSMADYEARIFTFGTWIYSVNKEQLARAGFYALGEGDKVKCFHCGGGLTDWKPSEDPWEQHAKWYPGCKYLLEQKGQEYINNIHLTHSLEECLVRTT

Tests used:
BIR2 domain of XIAP = BIR2 domain of XIAP (Homo sapiens (Human), UniProt P98170, C202A/C213G); experiment: TR-FRET assay for BIR2 (inhibition of binding of XIAP BIR2 domain to SMAC-derived Peptide A); conditions: 6x His-tagged BIR2 domain (aa 124-240 of XIAP) 10 nM, Peptide A 20 nM
BIR3 domain of XIAP = BIR3 domain of XIAP (Homo sapiens (Human), UniProt P98170); experiment: TR-FRET assay for BIR3 (inhibition of binding of XIAP BIR3 domain to SMAC-derived Peptide A); conditions: read-out: IC50 BIR3
[1] = 6x His-tagged BIR3 domain (aa 241-356 of XIAP) 10 nM, Peptide A 20 nM, TR-FRET

Structure (SMILES) | IC50 (BIR2 domain of XIAP) [nM] | IC50 (BIR3 domain of XIAP; [1]) [µM] | IC50 (BIR3 domain of XIAP) [µM] | IC50 (BIR3 domain of XIAP; 6x His-tagged BIR3 domain (aa 241-356 of XIAP) 10 nM, Peptide A 20 nM, TR-FRET, hydrochloride) [µM]
CN[C@@H](C)C(=O)N[C@@H]1C(=O)N(C(C(=O)Nc2c(F)cccc2F)c2ccccc2)c2ccccc2N(C(C)=O)[C@H]1C (stereo partly drawn) [Example 192, (2S)-N-((2S,3S)-1-acetyl-5-(2-(2,6-difluorophenylamino)-2-oxo-1-phenylethyl)-2-methyl-4-oxo-2,3,4,5-tetrahydro-1H-benzo[b][1,4]diazepin-3-yl)-2-(methylamino)propanamide hydrochloride] | 240 | > 54.8 | – | –
CN[C@@H](C)C(=O)N[C@H]1CN2CCCNC(=O)c3ccc4c(c(OC)ccc4c3)CN(C1=O)c1ccccc12 [Example 58, Cyclic-5-[(S)-5-(3-amino-propyl)-3-((S)-2-methylamino-propionylamino)-2-oxo-2,3,4,5-tetrahydro-benzo[b][1,4]diazepin-1-ylmethyl]-6-methoxy-naphthalene-2-carboxylic amide hydrochloride] | 358 | 19 | – | –
CN[C@@H](C)C(=O)N[C@H]1CN(C(=O)CCCCN)c2ccccc2N(Cc2c(OC)ccc3cc(C(=O)O)ccc23)C1=O [Example 53, 5-(((S)-5-(5-aminopentanoyl)-3-((S)-2-(methylamino)propanamido)-2-oxo-2,3,4,5-tetrahydro-1H-benzo[b][1,4]diazepin-1-yl)methyl)-6-methoxy-2-naphthoic acid hydrochloride] | 7 | – | 18.6 | –
CN[C@@H](C)C(=O)N[C@H]1CN(C(=O)CCCC(=O)O)c2ccccc2N(Cc2c(C)ccc3ccccc23)C1=O [Example 15, 5-[(S)-3-((S)-2-Methylamino-propionylamino)-5-(2-methyl-naphthalen-1-ylmethyl)-4-oxo-2,3,4,5-tetrahydro-benzo[b][1,4]diazepin-1-yl]-5-oxo-pentanoic acid hydrochloride] | 76 | – | > 54.8 | –
CN[C@@H](C)C(=O)N[C@H]1CN(C(=O)c2cccc(C(C)O)c2)c2ccccc2N(Cc2c(C)ccc3ccccc23)C1=O (stereo partly drawn) [Example 119, (2S)-N-[(3S)-1-[3-(1-hydroxyethyl)benzoyl]-5-[(2-methylnaphthalen-1-yl)methyl]-4-oxo-2,3-dihydro-1,5-benzodiazepin-3-yl]-2-(methylamino)propanamide;hydrochloride] | 57.5 | – | – | 21.7
CN[C@@H](C)C(=O)N[C@H]1CN(C(C)=O)c2ccccc2N(Cc2c(C)ccc3ccccc23)C1=O [Example 14, (S)—N—[(S)-5-acetyl-1-(2-methyl-naphthalen-1-ylmethyl)-2-oxo-2,3,4,5-tetrahydro-1H-benzo[b][1,4]diazepin-3-yl]-2-methylamino-propionamide hydrochloride] | 244 | – | > 54.8 | –
CN[C@@H](C)C(=O)N[C@H]1CN(C(=O)Cc2ccc(Cl)nc2)c2ccccc2N(Cc2c(OC)ccc3cc(Br)ccc23)C1=O [Example 89d] | 6 | 24.8 | – | –
CN[C@@H](C)C(=O)N[C@H]1CN(C(=O)c2cccc(C(C)=O)c2)c2ccccc2N(Cc2c(C)ccc3ccccc23)C1=O [Example 96g] | 65 | 44.8 | – | –
CN[C@@H](C)C(=O)N[C@H]1CN(C(=O)CS(C)(=O)=O)c2cc(C#N)ccc2N(Cc2c(C)ccc3ccccc23)C1=O [Example 165, (S)-N-((S)-7-cyano-1-((2-methylnaphthalen-1-yl)methyl)-5-(2-(methylsulfonyl)acetyl)-2-oxo-2,3,4,5-tetrahydro-1H-benzo[b][1,4]diazepin-3-yl)-2-(methylamino)propanamide hydrochloride] | 59.2 | > 54.8 | – | –
CN[C@@H](C)C(=O)N[C@H]1CN(C(C)=O)c2cc(C#N)ccc2N(Cc2c(OC)ccc3c(Br)cccc23)C1=O [Example 179, (S)-N-((S)-5-acetyl-1-((5-bromo-2-methoxynaphthalen-1-yl)methyl)-7-cyano-2-oxo-2,3,4,5-tetrahydro-1H-benzo[b][1,4]diazepin-3-yl)-2-(methylamino)propanamide] | 16.7 | 33.1 | – | –
CN[C@@H](C)C(=O)NC1C(=O)N(Cc2c(OC)ccc3ccccc23)c2ccccc2N(CC23CC4CC(CC(C4)C2)C3)C1=O (stereo partly drawn) [Example 110, (2S)-N-[5-(1-adamantylmethyl)-1-[(2-methoxynaphthalen-1-yl)methyl]-2,4-dioxo-1,5-benzodiazepin-3-yl]-2-(methylamino)propanamide] | 278 | > 54.8 | – | –
CN[C@@H](C)C(=O)N[C@H]1CN(C(=O)CCOC)c2cc(C(F)(F)F)ccc2N(Cc2c(C3CC3)cnc3ccccc23)C1=O [Example 185, (S)-N-((S)-1-((3-cyclopropylquinolin-4-yl)methyl)-5-(3-methoxypropanoyl)-2-oxo-7-(trifluoromcthyl)-2,3,4,5-tetrahydro-1H-benzo[b][1,4]diazepin-3-yl)-2-(methylamino)propanamide] | 60.1 | 33.2 | – | –
CN[C@@H](C)C(=O)N[C@H]1CN2C(=O)CCCN(C)C(=O)c3ccc4c(c(OC)ccc4c3)CN(C1=O)c1ccccc12 [Example 112, Cyclic-5-[(S)-5-(3-Amino-pentanoyl)-3-((S)-2-methylamino-propionylamino)-2-oxo-2,3,4,5-tetrahydro-benzo[b][1,4]diazepin-1-ylmethyl]-6-methoxy-naphthalene-2-carboxylic amide hydrochloride] | 248 | 41.2 | – | –
CN[C@@H](C)C(=O)N[C@H]1CN(C(=O)CCCN)c2ccccc2N(Cc2c(OC)ccc3cc(C(=O)O)ccc23)C1=O [Example 50, 5-(((S)-5-(4-aminobutanoyl)-3-((S)-2-(methylamino)propanamido)-2-oxo-2,3,4,5-tetrahydro-1H-benzo[b][1,4]diazepin-1-yl)methyl)-6-methoxy-2-naphthoic acid hydrochloride] | 13 | – | 18.5 | –
CN[C@@H](C)C(=O)N[C@H]1CN(C(=O)CS(C)(=O)=O)c2ccc(C#N)cc2N(Cc2c(OC)ccc3c(Br)cccc23)C1=O [Example 175, (S)-N-((S)-1-((5-bromo-2-methoxynaphthalen-1-yl)methyl)-8-cyano-5-(2-(methylsulfonyl)acetyl)-2-oxo-2,3,4,5-tetrahydro-1H-benzo[b][1,4]diazepin-3-yl)-2-(methylamino)propanamide hydrochloride] | 18.3 | 17.6 | – | –
CN[C@@H](C)C(=O)N[C@H]1CN(C(=O)c2ccc(C(C)=O)cc2)c2ccccc2N(Cc2c(OC)ccc3c(Br)cccc23)C1=O [Example 69f] | 7 | 30.7 | – | –
CCN[C@@H](CC)C(=O)N[C@H]1CN(C(=O)CS(C)(=O)=O)c2ccccc2N(Cc2c(OC)ccc3cc(Br)ccc23)C1=O [Example 157, (S)-N-((S)-1-((6-bromo-2-methoxynaphthalen-1-yl)methyl)-5-(2-(methylsulfonyl)acetyl)-2-oxo-2,3,4,5-tetrahydro-1H-benzo[b][1,4]diazepin-3-yl)-2-(ethylamino)butanamide hydrochloride] | 19.4 | > 54.8 | – | –
CN[C@@H](C)C(=O)N[C@H]1CN(C(=O)c2ccncc2)c2cc(C(F)(F)F)ccc2N(Cc2c(C3CC3)cnc3ccccc23)C1=O [Example 186, (S)-N-((S)-1-((3-cyclopropylquinolin-4-yl)methyl)-5-isonicolinoyl-2-oxo-7-(trifluoromethyl)-2,3,4,5-tetrahydro-1H-benzo[b][1,4]diazepin-3-yl)-2-(methylamino)propanamide] | 25.6 | 25.9 | – | –
CN[C@@H](C)C(=O)N(C)[C@H]1CN(C(=O)c2ccc([N+](=O)[O-])cc2)c2ccccc2N(Cc2c(OC)ccc3cc(Br)ccc23)C1=O [Example 107, (S)-N-((S)-1-((6-bromo-2-methoxynaphthalen-1-yl)methyl)-5-(4-nitrobenzoyl)-2-oxo-2,3,4,5-tetrahydro-1H-benzo[b][1,4]diazepin-3-yl)-N-methyl-2-(methylamino)propanamide hydrochloride] | 146 | > 54.8 | – | –
CN[C@@H](C)C(=O)N[C@H]1CN(C(=O)c2ccc(C(C)=O)cc2)c2ccccc2N(Cc2cc(=O)oc3cc(OC)ccc23)C1=O [Example 69c] | 341 | > 54.8 | – | –
CN[C@@H](C)C(=O)N[C@H]1CN(C(=O)c2ccc(C(C)O)cc2)c2ccccc2N(Cc2c(OC)ccc3c(Br)cccc23)C1=O (mixture of isomers) [Example 94, (S)—N—{(S)-1-(5-Bromo-2-methoxy-naphthalen-1-ylmethyl)-5-[4-(1-hydroxy-ethyl)-benzoyl]-2-oxo-2,3,4,5-tetrahydro-1H-benzo[b][1,4]diazepin-3-yl}-2-methylamino-propionamide, mixture of diastereomers] | 9 | 46.6 | – | –
CN[C@@H](C)C(=O)N[C@H]1CN(C(=O)c2ccc(C(C)=O)cc2)c2ccccc2N(Cc2c(OC)ccc3cc(C(=O)NO)ccc23)C1=O [Example 45, 5-(((S)-5-(4-acetylbenzoyl)-3-((S)-2-(methylamino)propanamido)-2-oxo-2,3,4,5-tetrahydro-1H-benzo[b][1,4]diazepin-1-yl)methyl)-N-hydroxy-6-methoxy-2-naphthamide 2,2,2-trifluoroacetate] | 16 | – | 29.9 | –
CN[C@@H](C)C(=O)N[C@H]1CN(C(=O)c2ccc(C(C)=O)cc2)c2ccccc2N(Cc2c(OCC(F)(F)F)ccc3ccccc23)C1=O [Example 69a, (S)—N—((S)-5-(4-Acetylbenzoyl)-2-oxo-1-((2-(2,2,2-trifluoroethoxy)naphthalen-1-yl)methyl)-2,3,4,5-tetrahydro-1H-benzo[b][1,4]diazepin-3-yl)-2-(methylamino)propanamide hydrochloride] | 32 | – | 47 | –

Where a name gives a salt, the structure may show the parent alone. Read-outs that look alike come from different tables or passages of the source.
